Assay results taken from patent US20050059610A1 (priority 2003, published 2005).

System: endotoxin-induced sepsis
Test: Lethal endotoxemia: survival, HSP expression, cytokine release
Details: rat, in vivo
Protocol: GLN was administered concurrently with lethal doses of endotoxin.
Evaluation of pro-inflammatory cytokine release was also assessed following endotoxemia.

## NC(=O)CC[C@H](N)C(=O)O [GLN, Glutamine]
  IL-1 beta following endotoxemia: attenuated
  TNF-alpha following endotoxemia: attenuated
